## Ab-14 light chain CDR variants: yeast mating affinities

Binding partner: SARS-CoV-2 spike HR2 peptide, sequence PDVDLGDISGINAS.

Parent: Ab-14, a human scFv built as VH, the linker GGGGSGGGGSGGGGS, VL. Only the CDRs of the light chain vary.
VH: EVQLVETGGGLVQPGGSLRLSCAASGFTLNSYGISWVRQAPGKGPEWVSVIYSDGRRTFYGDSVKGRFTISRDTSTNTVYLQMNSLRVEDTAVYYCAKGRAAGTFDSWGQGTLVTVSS
VL: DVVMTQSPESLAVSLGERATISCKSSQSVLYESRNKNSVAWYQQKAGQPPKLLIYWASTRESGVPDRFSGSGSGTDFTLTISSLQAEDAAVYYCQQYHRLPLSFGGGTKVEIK

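The starting antibody came from a phage panning campaign against this peptide. The library (AAYL50) carries one to three amino acid substitutions per variant, with no insertions or deletions. The scFvs were displayed on barcoded MATa yeast, the peptide on MATalpha yeast. After mating in shaken culture at 30 °C for 16 h, diploids were selected and their barcode pairs sequenced. Read counts were normalised to the haploid input and turned into Kd by a linear fit to BCL2-family pairs of known affinity, for each replicate. Each pool was mated in three replicate cultures.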

The parent's light chain CDRs are KSSQSVLYESRNKNSVA, WASTRES, QQYHRLPLS; each variant's own CDRs replace them letter for letter.
The read-out is the apparent dissociation constant on a log10 scale (nM): the lower, the stronger.
Replicates are averaged; those with no signal do not enter the mean.
Where no diploid with the target was found in that replicate, the entry reads "ND": below detection, most likely a poor binder, though not proof of it.
Three control strains display no target. For library AAYL50, 18% of the pairings with them gave a signal, with a median of 4.19 and one signal in twenty below 2.99, so weak values seen in few replicates may be background. Also given: how often the same scFv was detected with the empty control strains, with their mean in brackets.

CDR-L1,CDR-L2,CDR-L3,log10 Kd (nM) by replicate,"log10 Kd (nM), mean",control signals
KSSRAVLYESRNKVSVA,WASTRES,QQYHRLPLS,2.33 / 3.46 / ND,2.89,0/9
KSSQHVLYESRNKISVA,WAMTRES,QQYHRLPLS,2.06 / ND / ND,2.06,0/9
KPSQLVLYEYRNKNSVA,WASTRES,QQYHRLPLS,ND / 3.32 / ND,3.32,1/9 (2.38)
KSSQSVCYESRNKNSVA,WASTRES,HMYHRLPLS,4.34 / ND / ND,4.34,3/9 (4.22)
KSSRSVLYESRNKVSVA,WASTRES,QAYHRLPLS,3.60 / ND / ND,3.60,2/9 (3.25)
KSSQSVLYESRNLNSVA,WASTRIS,QQYHRLELS,0.71 / 0.84 / 0.90,0.82,2/9 (3.42)
KSSQSVLYESNNHNSVA,WASTRES,QQYHRLVLS,0.34 / 0.82 / 0.74,0.63,2/9 (3.96)
KSSGSVLYESRTKNSVA,WASTNES,QQYHRLPLS,ND / 4.10 / 4.75,4.42,8/9 (4.67)
KSSQSVLYERRNKNSVA,WASTHES,QQYHRLPLS,4.54 / 3.47 / 4.01,4.01,5/9 (5.26)
KSSQSVLSESRNKNSVA,WASTEES,QQYHRLPLS,ND / ND / ND,ND,0/9
KSSQFVLYESRNKKSVA,WASTRES,QQYHALPLS,2.79 / ND / 3.37,3.08,1/9 (3.23)
KSSQSVLYESRNKNSVA,WASTREK,QQYHRLIRS,1.98 / 2.13 / 2.20,2.11,1/9 (3.51)
KSSQSVLYESRNKNSVA,WTSTRES,QWYHRLPKS,3.21 / 2.59 / 2.58,2.80,5/9 (4.43)
KFSQSVLYESRNKNDVA,WASTRES,QQYHRLPLS,ND / ND / ND,ND,3/9 (4.51)
KNMQSVLYESFNKNSVA,WASTRES,QQYHRLPLS,2.33 / 2.09 / 2.48,2.30,0/9
KSSQSVLYESRNKNSMA,WASTRES,GQYHRSPLS,ND / 3.69 / ND,3.69,3/9 (3.72)
KSSQSVLYESRNKNSPA,WASARES,QQYHRLPLS,ND / 3.87 / ND,3.87,3/9 (4.23)
KSSQSHLYESRNANSVA,WALTRES,QQYHRLPLS,ND / ND / ND,ND,0/9
KSSQKVLYESQNKNSVA,WASTGES,QQYHRLPLS,5.42 / 4.38 / ND,4.90,0/9
KSSQSVLYESRNKNSVA,WASRRES,QRYHRLDLS,2.87 / 2.94 / 2.70,2.84,1/9 (3.48)
KSSQSVLLEDQNKNSVA,WASTRES,QQYHRLPLS,0.64 / 0.80 / 0.74,0.73,3/9 (4.86)
KSSQSVLYESRNKNSPA,WASTRDS,QQEHRLPLS,4.34 / 4.26 / 3.91,4.17,5/9 (5.00)
KSSQSVLYVSRNKNSVA,WTSTRES,CQYHRLPLS,ND / ND / ND,ND,0/9
KSSQSVLYESRNKNSPA,WASTTES,PQYHRLPLS,ND / ND / ND,ND,2/9 (4.55)
KSSQSKLYEHRNKNSVA,WCSTRES,QQYHRLPLS,ND / ND / ND,ND,0/9
KFSQSRLYESRNKNSVA,WASTRES,QQYHRLDLS,4.24 / ND / ND,4.24,4/9 (3.63)
KSSQSVLYESHNKNSVA,WASTRES,SQYHRLPRS,ND / ND / ND,ND,2/9 (3.12)
NKSQSVLYESRNCNSVA,WASTRES,QQYHRLPLS,ND / ND / ND,ND,1/9 (3.73)
KSSQSVLYESRNKNSVA,WASTRES,QEYHRRPIS,0.82 / 0.83 / 0.69,0.78,0/9
KSSQSVLYESRNDNSVA,WASTNES,QQYHRLPLS,ND / ND / ND,ND,1/9 (3.99)
KSKQSDLYESRNKNSVA,WPSTRES,QQYHRLPLS,4.72 / ND / ND,4.72,2/9 (2.52)
KSSSSVLYESRNKNSVA,WVSTREV,QQYHRLPLS,1.09 / 1.26 / 1.70,1.35,4/9 (4.40)
KSSQSVLYESCNKNSVA,WAGTRCS,QQYHRLPLS,6.07 / 3.51 / 3.43,4.34,3/9 (4.58)
KSSQSVLYESMNKISVA,WASTRES,QQYHRLPLS,ND / ND / ND,ND,0/9
VSSQSVLYESRNKSSVA,WASQRES,QQYHRLPLS,1.91 / 1.77 / 1.81,1.83,2/9 (4.44)
KSSQSVLYESRNKNHVA,WASTRES,QQYWILPLS,ND / ND / 2.84,2.84,0/9
CSSQMVLYEMRNKNSVA,WASTRES,QQYHRLPLS,ND / ND / 3.95,3.95,3/9 (3.90)
KSSQSVLYESRNFNSVA,WASTRES,QQYFRLTLS,1.20 / 1.10 / 1.29,1.20,0/9
KSSQSVLYESRNNNSVA,WMSTRES,QSYHRLPLS,3.89 / 3.18 / ND,3.54,2/9 (3.73)
HSSQSVLYTSRNKNSVA,WAWTRES,QQYHRLPLS,2.35 / 1.52 / 1.67,1.84,0/9
KSSQSVLYESPNKPSEA,WASTRES,QQYHRLPLS,ND / ND / ND,ND,0/9
KVSQSVLYESRNKNSVA,WASTRES,QQYVRLPWS,0.49 / 0.69 / 0.70,0.63,3/9 (4.33)
KSSQSVLYESFNKNIVA,WASTRES,NQYHRLPLS,ND / ND / ND,ND,2/9 (4.00)
HWSQSVLYESRNKNSVA,WASIRES,QQYHRLPLS,0.42 / 0.64 / 0.47,0.51,3/9 (5.07)
KSVQSVLYESRNKFSVA,WASFRES,QQYHRLPLS,ND / ND / ND,ND,0/9
KSSQSHCYESHNKNSVA,WASTRES,QQYHRLPLS,1.31 / 1.47 / 1.63,1.47,0/9
KSSQSVLYESRNKNSVA,WTSTVES,QQYHRLLLS,ND / ND / ND,ND,1/9 (2.24)
KSSQSVLYEGRNKNSVA,WASMRES,QQYHVLPLS,1.99 / 1.39 / 1.86,1.74,0/9

The opening 3 entries, copied out:

{"CDR-L1": "KSSRAVLYESRNKVSVA", "CDR-L2": "WASTRES", "CDR-L3": "QQYHRLPLS", "log10 Kd (nM) by replicate": "2.33 / 3.46 / ND", "log10 Kd (nM), mean": "2.89", "control signals": "0/9"}
{"CDR-L1": "KSSQHVLYESRNKISVA", "CDR-L2": "WAMTRES", "CDR-L3": "QQYHRLPLS", "log10 Kd (nM) by replicate": "2.06 / ND / ND", "log10 Kd (nM), mean": "2.06", "control signals": "0/9"}
{"CDR-L1": "KPSQLVLYEYRNKNSVA", "CDR-L2": "WASTRES", "CDR-L3": "QQYHRLPLS", "log10 Kd (nM) by replicate": "ND / 3.32 / ND", "log10 Kd (nM), mean": "3.32", "control signals": "1/9 (2.38)"}

Source: Engelhart et al. 2022 (doi:10.1038/s41597-022-01779-4), MIT Lincoln Laboratory and A-Alpha Bio; data file from the FLAb repository.